According to patent US8709811B2, “Materials and methods for synthesis of a flavor and aroma volatile in plants” (University of Florida Research Foundation, Inc., priority 2003, dated 2014):

Test system: NADPH
Assay: purified protein, by the assay type
Conditions: other: substrate specificity of LePEDH, His tag, E. coli BL21-AI

Substance: LePEDH (tomato 2-phenylethanol dehydrogenase, full-length cLET2M9) (Solanum lycopersicum)
- Km: 54.2 µM
